Vapor pressure values, as collected for the OPERA models

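These are experimental values that the OPERA curators gathered from public databases to train and test their QSAR models. A listed value is a point estimate from one report or more. Method, purity and exact conditions of the single measurements are not given. The measured form (salt, isomer or mixture) is not always the one drawn. Unmarked limits or estimates from the upstream databases cannot be ruled out.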

Vapor pressures (log10 mmHg) refer to near room temperature, 15 to 30 °C; higher is more volatile.
"via" names the databases from which the curators took the value.

compound	log VP (log10 mmHg)	via
FC(F)(F)COC(F)(F)C(F)(F)C(F)(F)F	2.424	ICF
Nc1ccc(N2CCOCC2=O)cc1	-8.339	eChemPortal
C=CC(=O)NCCC[Si](O[Si](C)(C)C)(O[Si](C)(C)C)O[Si](C)(C)C	-5.674	eChemPortal
CC(C)(C=O)CC1=CCC2CC1C2(C)C (stereo not given)	-1.593	eChemPortal
CCCCCCCCCCOC(C)=O	-1.752	eChemPortal
CC(=O)OC(C)c1ccccc1 (racemic)	-1.385	eChemPortal
O=C(O)CC(C(=O)O)c1ccccc1 (stereo not given)	-5.27	eChemPortal
Cc1cc(N(C)C)nc(Cl)n1	-1.638	OCHEM
O=C1C=CC(=O)N1c1ccccc1	-3.799	eChemPortal
CC(CO)COC1CC2CCC1(C)C2(C)C (stereo not given)	-2.302	eChemPortal
C=C1CC2C(CCC3(C)C2CCC3(OC(C)=O)C(C)=O)C2(C)CCC(=O)C=C12 (stereo not given)	-11.87	eChemPortal
C=C(C)C(=O)OCCCCCCOc1ccc(/C=C/C(=O)OC)cc1	-7.877	eChemPortal
C=CC(=O)OCc1ccccc1	-1.076	eChemPortal
O=P(O)(C(F)(F)C(F)(F)C(F)(F)C(F)(F)F)C(F)(F)C(F)(F)C(F)(F)C(F)(F)F	-4.962	eChemPortal
CCCC[N+](C)(CCCC)CCCC.COS(=O)(=O)[O-]	-6.824	eChemPortal
CC12CCC3C(CCC4C(C)(C)CCCC43C)(CO1)O2 (stereo not given)	-5.011	eChemPortal
CO[Si](C)(CCCCl)OC	-0.224	eChemPortal
COC(=O)c1ccc(I)cc1S(=O)(=O)[N-]C(=O)Nc1nc(C)nc(OC)n1.[Na+]	-10.3	OCHEM
CCCCCCC(C=O)=Cc1ccccc1	-3.387	OCHEM
C=C(C)C(=O)OC(C(F)(F)F)C(F)(F)F	1.565	ChemicalBook
CCCCC(CC)COC(=O)c1ccc(N(C)C)cc1 (stereo not given)	-5.426	eChemPortal
C=CC(=O)Nc1ccccc1	-4.176	eChemPortal
CCN(CCO)c1ccc(/N=N/c2sc3cc(OC)ccc3[n+]2C)cc1.COS(=O)(=O)[O-]	-7.878	eChemPortal
Clc1cc(Cl)c(-c2c(Cl)ccc(Cl)c2Cl)c(Cl)c1	-4.514	OCHEM
CC(C)(C)c1cccc(C(C)(C)C)c1O	-2.119	OFMPub, PubChem, eChemPortal
C=C(C)C(=O)OCCN(CC)CC	-0.989	eChemPortal
O[C@@H]1[C@@H]2O[C@@H]3[C@@H](O)[C@H](O)[C@H](O[C@@H]4[C@@H](O)[C@H](O)[C@H](O[C@@H]5[C@@H](O)[C@H](O)[C@H](O[C@@H]6[C@@H](O)[C@H](O)[C@H](O[C@@H]7[C@@H](O)[C@H](O)[C@H](O[C@@H]8[C@@H](O)[C@H](O)[C@H](O[C@@H]9[C@@H](O)[C@H](O)[C@H](O[C@H]([C@H]1O)[C@H](CBr)O2)O[C@H]9CBr)O[C@H]8CBr)O[C@H]7CBr)O[C@H]6CBr)O[C@H]5CBr)O[C@H]4CBr)O[C@H]3CBr	-4.617	eChemPortal
COc1ccc(OC(=O)c2ccc(OCCCCC3CO3)cc2)cc1 (stereo not given)	-4.725	eChemPortal
CC/C(=C\CC1CC=C(C)C1(C)C)CO (stereo partly drawn)	-3.892	eChemPortal
C=C1COC(C)(C)O1	0.526	eChemPortal
COc1cc(NS(=O)(=O)c2ccccc2)c2c(c1N)C(=O)c1ccccc1C2=O	-12.56	eChemPortal
C=C(C)C(=O)OCCC[Si](OC)(OC)OC	-1.763	eChemPortal
C=C[Si](C)(C)O[Si](C)(C)C=C	0.96	eChemPortal
CCCCOC(=O)c1ccc(O)cc1	-4.625	eChemPortal
COCc1ccc(O)c(OC)c1	-2.763	eChemPortal
CCCCCCCCCCCC(=O)OC(C)C(=O)OC(C)C(=O)[O-].[Na+] (stereo not given)	-4.715	eChemPortal
C=C(C(=O)OCC)C(=O)OCC(=O)OCC	-1.072	eChemPortal
CCCCOCCOCCOCOCCOCCOCCCC	-6.135	OFMPub, eChemPortal
CNc1ccc(Nc2cccc(C)c2)c2c1C(=O)c1ccccc1C2=O	-4.824	eChemPortal
O=C(O)c1ccc(O)cc1O	-7.175	eChemPortal
O=C([O-])C(O)C(O)C(O)C(O)C(O)CO.[Na+]	-6.581	eChemPortal
O=C1CCCCCN1C(=O)NCCCCCCNC(=O)N1CCCCCC1=O	-9.773	eChemPortal
C=CN1CC(C)OC1=O (stereo not given)	-1.782	eChemPortal
CCCCC[C@@H]1C(=O)CC[C@H]1C(=O)OC	-2.667	eChemPortal
NCCCCCCCCCCN	-3.824	eChemPortal
CCCCC(CC)C(=O)OC (stereo not given)	0.5	eChemPortal
O=c1oc(-c2ccc(-c3nc4ccccc4c(=O)o3)cc2)nc2ccccc12	-7.935	eChemPortal
CC(C)OC(=O)C(F)(F)F	2.015	eChemPortal

Values as listed in the OPERA 2.9 repository of K. Mansouri.